# scFv variants of Ab-14 (heavy chain) against a SARS-CoV-2 spike peptide

Source: Li et al. 2023 (doi:10.1038/s41467-023-39022-2), MIT Lincoln Laboratory and A-Alpha Bio; data file from the FLAb repository.

The target is the same throughout: PDVDLGDISGINAS, from the HR2 region of SARS-CoV-2 spike.

Each scFv is VH, three GGGGS repeats, VL, as in the parent Ab-14, and differs from it in the CDRs of the heavy chain only.
VH: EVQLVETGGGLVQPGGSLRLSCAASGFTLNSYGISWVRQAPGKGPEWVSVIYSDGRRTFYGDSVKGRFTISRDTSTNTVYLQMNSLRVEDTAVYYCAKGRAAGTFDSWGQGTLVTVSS
VL: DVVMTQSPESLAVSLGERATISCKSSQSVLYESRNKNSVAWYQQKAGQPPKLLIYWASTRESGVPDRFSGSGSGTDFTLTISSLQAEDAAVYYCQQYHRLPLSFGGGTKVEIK

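Designed CDR sequences, proposed from the first random library and measured here. Several design methods are mixed in this list. Affinity was read by AlphaSeq, a pooled yeast mating assay with surface-displayed partners. Pairs that bind mate more often; barcode pairs of the diploids are counted by sequencing. Scores were corrected for input abundance and mapped to Kd with protein pairs of known affinity run in the same pool. Mating was done six times.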

The parent's heavy chain CDRs are GFTLNSYGIS, VIYSDGRRTFYGDSVK, GRAAGTFDS; each variant's own CDRs replace them letter for letter. Variants here have at most six changes. Each Kd is an estimate from the mating assay, the geometric mean of the replicates in which the pair was seen; lower is stronger. Where no diploid with the target was found in any replicate, the entry reads "nd": below detection, most likely a poor binder, though not proof of it. The authors averaged sequences with at least three values out of six and counted those with two or fewer as poor binders.

- GFTLNSYGIS | VIYSDGRRTFYADDVK | GEAAGTFDK: 1.3 nM (6 of 6 replicates)
- GFTLNSYGIS | VIYSDGRRTMYGDSVK | GRAAGPFDS: nd (0 of 6 replicates)
- GFTLNDYGIS | VIYSDGRRTAYADSVK | GRAAGTFDS: 2.9 nM (29 of 30 replicates)
- GFTLNSQGIS | VIYADGKRTFYGDSVK | GRAADTFDS: nd (0 of 6 replicates)
- GFTLNEYGIS | VIYSDGMRTFYGDSVK | GRAAGTFIS: nd (0 of 6 replicates)
- GFNLNSYGIS | VIYSDGRRTFYGDNVK | GRNAGTFDS: 66 nM (6 of 6 replicates)
- GKSLNSYGIS | VIYSDGRRTFYSDSVK | GRQAGTFDS: 16 nM (5 of 6 replicates)
- GFTLNSYGIS | VIYSDGKRTFYGDSVK | GQTAGTFDM: 45 nM (5 of 6 replicates)
- GFTLNSYGIS | VIYSDGRRTFYSDSVK | GQTAGTFDS: 9.8 nM (1 of 6 replicates)
- GFELNSYGIS | VIYSDGRRTFYGDQVK | GKTAGTFDS: 2.6 nM (6 of 6 replicates)
- GFDLNSYGIS | VIYSDGRRTFYADSVK | GRAAGTFDK: 2.9 nM (6 of 6 replicates)
- GFDLNSYGIS | VIYSDGKRTFYADNVK | GRTAGTFDS: 8.1 nM (5 of 6 replicates)
- KFSLNWYGIS | VIYSDGRRTFYHDSVK | GRTAGTFDS: 3.8 nM (5 of 6 replicates)
- GFTLNSYSIS | VIYSDGRRTFYGDSVK | GRAAGTFDS: nd (0 of 6 replicates)
- GFSLNDYGIS | VIYSDGRRTFYGDSVK | GRYAGTFDS: 3.6 nM (6 of 6 replicates)
- GLTLNSYFIS | VIYSDGRRTAYGDFVK | GRAAGTFDS: nd (0 of 6 replicates)
- GFTLQSYGIS | VIYSDGRRTFYDDSVK | GQLAGTFDS: 21 nM (5 of 6 replicates)
- GFDLNSYGIS | VIYSDGRRTFYKDSVK | GKAAGTFDS: 6.3 nM (6 of 6 replicates)
- GFSLNEYGIS | VIYSDGRRTFYEDSVK | GRAGGTFDS: 22 nM (6 of 6 replicates)
- GFKLNEYGIS | VIYSDGRRTFYDDSVK | GRHAGTFDS: 5.2 nM (3 of 6 replicates)
- GFTLNSYGIS | VIYSDGRRTFYSDSVK | GKIAGTFDS: 600 pM (6 of 6 replicates)
- GFQLNEYGIS | VIYSDGRRTFYGDQVK | GRTAGTFDS: 3.2 nM (6 of 6 replicates)
- GFSLNSYGIS | VIYSDGRRTFYADDVK | GREAGTFDS: 330 pM (6 of 6 replicates)
- GFDLNSYGIS | VIYSDGRRTFYSDSVK | GRAAGWGNS: nd (0 of 6 replicates)
- GFDLNSYGYS | VIYSQGRRTFYGDSIK | GRAAGWFNS: nd (0 of 6 replicates)
- GFHLNDYGIS | VAYSDGRRTFYGDSVK | GRAAGTFRV: 2.5 nM (4 of 6 replicates)
- GFPLNEYGIS | VIYSDGRRTFYGDSVK | GRTAGTFDS: 2.4 nM (6 of 6 replicates)
- GFTLNSYGIS | VIYSDGRRAFYADSVK | ARADGTFDS: 15 nM (1 of 6 replicates)
- GFTLNSYGIS | VIYSDGRRTFYGDSVK | GRAAQTFDS: nd (0 of 6 replicates)
- GFGLNEYGIS | VIYSDGRRTFYGDSVK | GKTAGTFDL: 2.2 nM (6 of 6 replicates)
- GFSLNTYGIS | VIYSDGRRTFYGDSVK | GTAAGTFDS: 980 pM (6 of 6 replicates)
- GFHLNSYGIS | VIYSDGRRTFYQDSVK | GRNAGTFDT: 130 nM (5 of 6 replicates)
- GFSLNSYGIS | VIYSDGRRTMYGDSVK | GRNAGTFDS: 46 nM (6 of 6 replicates)
- GFGLNDYGIS | VIYSDGRRTYYGDSVK | GRAAGTFDS: 7.4 nM (6 of 6 replicates)
- GFTLNSYGIS | VIYSDGRRTFYTDSVK | GQTAGTFDS: 27 nM (5 of 6 replicates)

Picked from the list: the 6 lowest averages where every replicate gave a value.

| CDR-H1 | CDR-H2 | CDR-H3 | apparent Kd | seen in |
|---|---|---|---|---|
| GFSLNSYGIS | VIYSDGRRTFYADDVK | GREAGTFDS | 330 pM | 6 of 6 |
| GFTLNSYGIS | VIYSDGRRTFYSDSVK | GKIAGTFDS | 600 pM | 6 of 6 |
| GFSLNTYGIS | VIYSDGRRTFYGDSVK | GTAAGTFDS | 980 pM | 6 of 6 |
| GFTLNSYGIS | VIYSDGRRTFYADDVK | GEAAGTFDK | 1.3 nM | 6 of 6 |
| GFGLNEYGIS | VIYSDGRRTFYGDSVK | GKTAGTFDL | 2.2 nM | 6 of 6 |
| GFPLNEYGIS | VIYSDGRRTFYGDSVK | GRTAGTFDS | 2.4 nM | 6 of 6 |

A sequence measured in both rounds can read differently, since the two assays cover different ranges. Some sequences occur more than once in the pool; their replicates are pooled. Background: pairings of all heavy chain designs with three empty control strains gave a value in 1% of cases (median 120 nM, 5th percentile 7.0 nM). Values in that range, when seen in few replicates, are hard to tell from nonspecific mating.